Values of other authors as cited in patent publication US11065330B2, “Induction of antigen-specific tolerance by peripheral phagocytosis” (PLS-Design GmbH, priority 2014, dated 2021).

System: NOD/Lt mice

## VLGGG CALLRC IPALD SLTPA NED (VLGGGCALLRCIPALDSLTPANED; listed as Homo sapiens) [p277, 23-mer peptide derived from MT-hsp65]
i.p. 50 μg p277 in IFA, two weeks later MT-hsp65 50 μg in IFA
  mice developing diabetes within 30 days: None of 10
Single i.p. 50 μg p277 in IFA
  mice developing blood glucose higher than 130 mg/dl within 3 weeks: None of 7
